Results: patent US20240336606A1 (Suzhou Zelgen Biopharmaceuticals Co., Ltd., priority 2020, published 2024)

Tested on: MIA PaCa-2 tumor cells
Assay: Anti-tumor pharmacodynamic evaluation, MIA PaCa-2 subcutaneous xenograft
Design: species or system nude mice
Conditions: mouse, in vivo
Method: 100 μL of a suspension containing 5×10^6 MIA PaCa-2 tumor cells was subcutaneously inoculated into the right posterior abdomens of nude mice. The health of the mice was monitored daily, and measurements were started when tumors grew to be palpable. The tumor volume was calculated as follows: 0.5×L×W^2, where L and W represent the length and width of the tumor, respectively. When the tumors grew to about 100 mm^3, the mice were randomized into groups. The mice were intragastrically administered a corresponding dose (50 mg/kg) of compound suspension in CMC-Na twice daily, and their general states were monitored at the same time. The tumors were measured 3 times a week, and the body weight was measured twice a week.

COc1cc2nc(C)nc(N[C@H](C)c3cc(N)cc(C(F)(F)F)c3)c2cc1O[C@H]1CCOC1 [BI3406, reference compound]
% TGI (tumor growth inhibition): 75.7%
TV (mm^3) (tumor volume) Day 21: 223 mm^3
TV (mm^3) (tumor volume) Day 0 (50 mg/kg): 103 mm^3
